According to ChEMBL document CHEMBL1129543, “Synthesis and evaluation of N-(phenylacetyl)trifluoromethanesulfonamides as anticonvulsant agents” (J Med Chem, 1996):

Species on record: Rattus norvegicus
Test: Protective index (TD50/ED50) was determined against MES induced seizure in rat.
Format: functional
Procedure, shortened: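 Oral dosing in 30% PEG 400: phase IV in mice (0.01 mL/g), phase VI in Sprague-Dawley rats (0.004 mL/g). ED50/TD50 found as in phase II, at the stated time of peak effect. MES current 50 mA in mice, 150 mA in rats. PTZ sc 85 mg/kg in mice, 70 mg/kg in rats. Toxicity by rotorod in mice; positional sense, gait and stance in rats. PI = TD50/ED50.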

With CCC1(C)CC(=O)NC1=O (stereo unspecified) [ETHOSUXIMIDE] the PI was under 0.44.
